Assays:
[1] = cited from earlier work
[2] = cited from earlier work; remark: listed apart in the source
[3] = Saturated peptide solution (solubility in solvent); conditions: neat PG; thermodynamic, excess peptide shaken 48 h at room temperature, centrifuged 10000 rpm 3 minutes, supernatant assayed
[4] = In vitro skin permeation, vertical Franz diffusion cells; conditions: vertical Franz cell 1 cm^2, human dermatomed cadaver skin, 400 µL saturated solution (max 1% w/w), receptor 4.8 mL 1X PBS, 32 °C, 180 rpm, HPLC-UV 215 nm, mean of triplicates

Structure (SMILES): CSCC[C@H](NC(=O)[C@H](CCC(=O)O)NC(=O)[C@H](CCC(=O)O)NC(C)=O)C(=O)N[C@@H](CCC(N)=O)C(=O)N[C@@H](CCCNC(=N)N)C(=O)N[C@@H](CCCNC(=N)N)C(N)=O
- LogP [1]: −6.3
- Share of total amount permeated through and stayed in the human epidermis ([2]; 10% w/w in an O/W emulsion): 0.23%
- Share of peptide that made it through to the epidermis ([2]; in vitro, human cadaver skin): 0.01%
- Share of total amount permeated through the skin and retained within stratum corneum ([2]; in vitro, human cadaver skin): 0.22%
- Concentration of saturated solution in the donor compartment [3]: 0.2 % w/w
- Cumulative Amount Permeated Through Skin after 24 hrs, Average ([4]; 0% PG (pure water) donor): 76.4 µg
- Cumulative Amount Permeated Through Skin after 24 hrs, Average ([4]; 30% PG in water donor): 153.2 µg
- Cumulative Amount Permeated Through Skin after 24 hrs, Average ([4]; 50% PG in water donor): 53.5 µg
- Cumulative Amount Permeated Through Skin after 24 hrs, Average ([4]; 70% PG in water donor): 667.4 µg
- Cumulative Amount Permeated Through Skin after 24 hrs, Average ([4]; 100% PG (pure PG) donor): 144.4 µg

Reference: publication PMC5785486, “Enhanced Skin Permeation of Anti-wrinkle Peptides via Molecular Modification” (Scientific Reports, 2018)
